Among the data in patent US20260034111A1, “NOVEL HETEROCYCLES AS sPLA2-X INHIBITORS” (Cayman Chemical Company Incorporated, priority 2022, published 2026) are Kd and IC50 values, retold here.

Experiment [1] has as its target T1, sPLA2-IIA protein (Homo sapiens, UniProt P14555).
T1 sequence (P14555 21-144): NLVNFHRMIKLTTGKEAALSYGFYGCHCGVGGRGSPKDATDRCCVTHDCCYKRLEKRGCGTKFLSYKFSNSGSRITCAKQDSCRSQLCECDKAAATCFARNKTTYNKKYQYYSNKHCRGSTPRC
In words: SPR single cycle kinetic binding analysis against sPLA2-IIA.

The target in experiment [2] is T1, sPLA2-IIA protein. In words: sPLA2-IIA enzyme inhibition assay (thio-PC substrate, DTNB detection, absorbance 410 nm). Format: biochemical. Further details: made in house; host or cells: E. coli. The source says: (§1) Screening Compounds for Inhibition of sPLA2-X, sPLA2-V, and sPLA2-IIA Enzyme Activity
(§2) These sPLA2 enzymes hydrolyze the sn-2 acyl chains of glycerophospholipids, resulting in the release of a free fatty acid and a lysophospholipid. In the case of the thio-PC substrate, this enzymatic hydrolysis results in a free sulfhydryl group remaining on the lysophospholipid. This free sulfhydryl reacts with DTNB to produce the chromogenic product 5-nitro-2-thiobenzoic acid (TNB) which can be quantitated by absorbance at 410 nm. The amount of TNB produced reflects the hydrolytic activity of the enzyme.
(§3) The recombinant human sPLA2 groups IIA, V, and X enzymes were expressed in E. coli and purified to >90% purity by standard biochemical methods.
(§4) Procedure of Enzyme Inhibition for sPLA2-X • 1. […] Dilute the test compounds in 100% DMSO by half-log steps in a 96-well dilution plate using columns 1-11 (one compound per row). Column 12 contains DMSO alone with no compound. • 3. Prepare a 3.5 mM thio-PC substrate solution by drying down 7.2 mg of stock thio-PC in ethanol under a gentle stream of N2 gas. […] Measure the absorbance of all wells at 410 nm. • 13. Determine the mean absorbance of the “no enzyme” wells. Subtract this value from the absorbance values determined for all other wells (these are now background corrected data). • 14. […]

The next experiment deals with T2, sPLA2-X protein (Homo sapiens, UniProt O15496).
T2 sequence (O15496 43-165): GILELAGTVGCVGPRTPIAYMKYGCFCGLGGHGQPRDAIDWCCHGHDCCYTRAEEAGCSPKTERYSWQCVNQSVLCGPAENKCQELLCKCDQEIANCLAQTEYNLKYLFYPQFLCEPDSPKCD
In words: sPLA2-X enzyme inhibition assay (thio-PC substrate, DTNB detection, absorbance 410 nm). The arrangement: made in house; host or cells: E. coli. It is filed as biochemical. The settings on record: IC50 value for positive control, value the positive control should give per the procedure.
Text: as §1, §2, §3, §4

The structures appear in SMILES notation.

As usually defined, the Kd is the free concentration of one partner at which half of the binding sites on the other are occupied at equilibrium, for simple one-to-one binding. The low end stands for higher affinity, the high end for lower affinity. What is called IC50 is the concentration that gives 50% inhibition. Low values mean greater potency, high ones weaker potency. For `CCc1c(C(=O)C(N)=O)c2c(OCC(=O)O)cccc2n1Cc1ccccc1` [LY315920, Varespladib, reference compound], the Kd at sPLA2-IIA protein [1] worked out at 12.1 nM. Also, the IC50 against sPLA2-IIA protein [2] (IC50 value for positive control, sPLA2-IIA, value the positive control should give per the procedure) was roughly 120 nM; against sPLA2-IIA protein [2] (sPLA2 Type IIa Inhibition (IC50; nM), numeric value, control), 137 nM; on sPLA2-X protein, roughly 10 nM.
